Values quoted from earlier work as cited in patent US9861096B2, “Biodegradable chemical delivery system” (Cornell University, priority 2008, dated 2018).

Conditions: octanol/aqueous pH 7.65; cited from earlier work

## CC(C)(C)NC[C@H](O)COc1nsnc1N1CCOCC1 [timolol]
  log Kow: 1.91
